This is an account of results in PubChem BioAssay AID588473 (Sanford-Burnham Center for Chemical Genomics, 2011).

Only a part is listed here, and it is no random draw. The source made the active and inactive calls.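 How the source made its calls: active means activation of at least 50%, plus an integration ratio under a set limit after plate pattern correction; inactive means the rest.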

In this experiment the test system is CRF-binding protein / CRF receptor 2 complex (human). Nature of the experiment: activators of CRF-R2 with CRF-BP – cell-based, HEK293, calcium dye fluorescence, uHTS, primary screen (AID 588473).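 Further: plate controls were neutral control wells without compound for no effect and CRF at EC100 for full effect.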 To be noted: calcium dye fluorescence (FLIPR), at 13.2 µM, active compounds read high, percent of saturating CRF peptide response.
In the case of `O=P1(Nc2ccc(Br)cn2)COc2ccccc2OC1`, the activation was inactive: -1.76%.

In the case of `NS(=O)(=O)c1cccc(NC(=O)COC(=O)C(O)(c2ccccc2)c2ccccc2)c1`, the activation was inactive: -2.93%. The value for `CC1CCC(C(C)C)C(OP(=O)(Nc2ccccn2)c2ccccc2)C1` (centres undefined) was inactive: -0.62%; that for `Cc1ccc(C(=O)OC2CN3CCC2CC3)cc1` (centres undefined) was inactive: 1.54%. As for `Cc1nn(-c2ccccc2)c2c1P(=O)(N1CCOCC1)N(C)C(c1ccccc1)=N2` (centres undefined), the activation is inactive: 0.14%. As for `CN(C)C1(CNC(=O)c2ccc(S(C)(=O)=O)cc2)CCCCC1`, the activation is inactive: -0.68%. The value for `CCCC1OP(=O)(Nc2ccccc2)OCC1CC` (centres undefined) was inactive: -0.28%; that for `O=C(/C=C/c1ccccc1)OC1CN2CCC1CC2` (centres undefined) was inactive: 1.56%; that for `COc1ccccc1CNC(=O)COC(=O)C(O)(c1ccccc1)c1ccccc1` was inactive: -1.18%.

In the case of `CC(C)/C=N\N=C(\N)N[N+](=O)[O-]`, the activation is inactive: 3.8%. As for `CN(C(=O)Cc1ccc(Cl)c(Cl)c1)[C@@H]1CCCC[C@H]1N1CCCC1`, the activation was inactive: -2.42%.

For the compound `CC1(CBr)Cn2c(nc3ccccc3c2=O)S1` (centres undefined), the activation was inactive: -0.05%.

In the case of `CCOP(=O)(NC(=NC(C)c1ccccc1)NC(C)c1ccccc1)OCC` (centres undefined), the activation is inactive: -0.78%.

Consider `O=P1(Nc2ccccn2)COc2ccccc2OC1`, for which the activation is inactive: 0.67%.

Take `CCC1=CC2Cc3nc4ccc(Cl)cc4c(N)c3C(C1)C2` (centres undefined): the activation is inactive: 1.58%. The value for `CCOP(=O)(Nc1ccc(C)cn1)OCC` was inactive: 0.3%; that for `CN(CCCl)Cc1cc(Cl)c(NC2=NCCN2)c(Cl)c1` was inactive: 1.25%; that for `CC(C)(C)C(=O)NC(Sc1ncccn1)C(Cl)(Cl)Cl` (centres undefined) was inactive: 1.3%.

Take `O=P1(N(CCCl)CCCl)NCCC(C(F)(F)F)O1` (centres undefined): the activation was inactive: 24.2%. The result for `Clc1n[nH]nc1-c1nn[nH][15n]1` reads inactive: 4.31%; that for `Cc1ccc(NCCc2c([N+](=O)[O-])cc([N+](=O)[O-])cc2[N+](=O)[O-])cc1`, inactive: -3.83%; that for `Nc1cccc2c([As](=O)(O)O)cccc12`, inactive: 40.3%. Take `CCCOP(=S)(Nc1nc(N)cc(=O)[nH]1)OCCC`: the activation is inactive: -1.95%.

Consider `CCOP(=O)(Nc1cccc2ccccc12)OCC`, for which the activation is inactive: -1.08%.

`COc1cc(C2NCCC3(OCCO3)C2(C)C)cc(OC)c1OC` (centres undefined): the activation was inactive: 3.54%. The value for `O=C(OC1CN2CCC1CC2)c1ccc(Cl)cc1` (centres undefined) was inactive: -0.49%; that for `CS(=O)(=O)c1ccc(Cl)c(NC(=O)COC(=O)C(O)(c2ccccc2)c2ccccc2)c1` was inactive: -1.73%; that for `O=[As](O)(O)c1cccnc1` was inactive: 1.2%. The value for `COc1cc(C(=O)NCC2(N3CCOCC3)CCCCC2)cc(Cl)c1OC(C)C` was inactive: -4.06%; that for `Cc1cccc(OCC(=O)OC2CN3CCC2CC3)c1` (centres undefined) was inactive: -0.12%. Take `O=[As](O)(c1cccc(O)c1)c1cccc(O)c1`: the activation was inactive: -0.59%. The result for `NC(=O)Nc1ccc([As](=O)(O)O)cc1` reads inactive: -0.72%; that for `CCOP1(=S)c2c(C)nn(CCC#N)c2N=C(c2ccc(F)cc2)N1C` (centres undefined), inactive: 0.04%; that for `CN(C(=O)Cc1ccccc1)[C@@H]1CC[C@]2(CCCO2)C[C@H]1N1CCCC1`, inactive: 7.65%. With `N#CCCN(C(=O)COC(=O)C(O)(c1ccccc1)c1ccccc1)c1ccc(F)cc1`, the activation was inactive: 3.29%. The result for `CN(C(=O)Cc1ccc(Cl)c(Cl)c1)[C@H]1CC[C@@]2(CCCO2)C[C@@H]1N1CCCC1` reads inactive: -0.51%; that for `O=[N+]([O-])c1ccc2c(c1)nnn2O`, inactive: 1.68%. The value for `CN(C)C(=O)c1cc([N+](=O)[O-])cc2c1-c1c(cc([N+](=O)[O-])cc1[N+](=O)[O-])C2=O` was inactive: -6.47%. The value for `O=P(Nc1nccs1)(Oc1ccccc1)Oc1ccccc1` was inactive: 0.61%; that for `O=P(Nc1nccs1)(c1ccccc1)c1nc2ccccc2s1` (centres undefined) was inactive: 1.24%. Regarding `CCOP1(=S)c2c(C)nn(CCC#N)c2N=C(c2ccccc2F)N1C` (centres undefined), the activation is inactive: -1.01%. Consider `CS(=O)(=O)c1cc([N+](=O)[O-])c2no[n+]([O-])c2c1`, for which the activation was inactive: 27.4%.

`Nc1ccccc1[As](=O)(O)c1ccccc1`: the activation was inactive: 2.14%. In the case of `O=C(O)COc1ccc([As](=O)(O)O)cc1[N+](=O)[O-]`, the activation is inactive: 0.77%.
